Values quoted from earlier work as cited in article PMC8200100.
Where two headings read alike, the source gives them in different places.

Protein sequences, listed by entry. Tags and fused reporters are not part of them. Residues count along the entry.
UniProt P04629, 33-423: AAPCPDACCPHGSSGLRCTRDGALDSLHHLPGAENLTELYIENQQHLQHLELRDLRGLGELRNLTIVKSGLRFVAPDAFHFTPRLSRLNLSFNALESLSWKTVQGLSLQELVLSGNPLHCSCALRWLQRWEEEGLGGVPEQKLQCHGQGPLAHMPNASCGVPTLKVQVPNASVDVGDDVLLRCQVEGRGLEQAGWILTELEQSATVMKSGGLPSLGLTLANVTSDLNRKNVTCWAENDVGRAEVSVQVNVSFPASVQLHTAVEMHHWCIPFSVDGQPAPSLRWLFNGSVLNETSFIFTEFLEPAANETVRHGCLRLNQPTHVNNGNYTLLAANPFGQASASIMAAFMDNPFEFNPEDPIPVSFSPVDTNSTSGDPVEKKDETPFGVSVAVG
UniProt P08138, 29-250: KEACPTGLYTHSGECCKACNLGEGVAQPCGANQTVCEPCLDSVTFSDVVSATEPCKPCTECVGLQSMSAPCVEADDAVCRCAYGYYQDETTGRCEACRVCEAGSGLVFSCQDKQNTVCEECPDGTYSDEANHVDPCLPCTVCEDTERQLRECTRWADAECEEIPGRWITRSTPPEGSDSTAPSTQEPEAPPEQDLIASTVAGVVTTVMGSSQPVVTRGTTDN
UniProt P01138, 122-241: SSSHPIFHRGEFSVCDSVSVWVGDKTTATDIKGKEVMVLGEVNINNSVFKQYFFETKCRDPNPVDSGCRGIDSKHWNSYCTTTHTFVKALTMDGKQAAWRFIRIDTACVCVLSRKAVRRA

Columns and labels:
TrkA (Homo sapiens) [1] = target: TrkA (Homo sapiens) (UniProt P04629)
TrkA (Homo sapiens) [2] = target: TrkA (Homo sapiens) (UniProt P04629); remark: listed apart in the source
p75NTR (Homo sapiens) = p75NTR (Homo sapiens) (UniProt P08138)

Kd (TrkA (Homo sapiens) [1]): 0.0028 nM
Kd (TrkA (Homo sapiens) [2]): 1.5 nM
Kd (p75NTR (Homo sapiens)): 1.5 nM
Substance: NGF (from UniProt P01138)
